Data taken from article PMC2895947 (Neuropsychopharmacology : official publication of the …, 2010).

Assay: THC blood and brain levels, single bolus vs cumulative dosing
Format: in vivo
Details: THC 10 mg/kg cumulative; C57Bl/6J mice; mean ± SEM

CCCCCc1cc(O)c2c(c1)OC(C)(C)[C@@H]1CCC(C)=C[C@@H]21 [THC, Δ^9-tetrahydrocannabinol]
Brain THC level, cumulative dosing: 225 ± 32 ng/mL
